Source: US20050142634A1, “Novel modulator of non-genomic activity of nuclear receptors (mnar) and uses thereof” (Wyeth, priority 2001, published 2005)

By UniProt entry, the sequences of proteins in these tests, tags left out.
UniProt Q92731, whole entry, species assumed: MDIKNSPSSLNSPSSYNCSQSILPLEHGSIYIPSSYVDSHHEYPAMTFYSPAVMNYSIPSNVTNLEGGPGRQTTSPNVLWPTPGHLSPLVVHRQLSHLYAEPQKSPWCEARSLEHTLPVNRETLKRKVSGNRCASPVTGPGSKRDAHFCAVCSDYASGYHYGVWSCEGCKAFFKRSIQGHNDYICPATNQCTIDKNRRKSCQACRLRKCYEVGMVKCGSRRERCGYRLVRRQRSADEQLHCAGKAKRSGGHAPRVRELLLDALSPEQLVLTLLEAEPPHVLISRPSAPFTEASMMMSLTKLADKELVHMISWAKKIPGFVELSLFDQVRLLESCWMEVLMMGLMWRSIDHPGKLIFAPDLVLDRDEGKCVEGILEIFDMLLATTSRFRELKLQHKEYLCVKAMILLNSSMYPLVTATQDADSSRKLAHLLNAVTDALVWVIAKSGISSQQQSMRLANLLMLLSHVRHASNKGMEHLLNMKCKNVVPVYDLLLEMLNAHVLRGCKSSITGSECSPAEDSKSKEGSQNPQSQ

Molecular target: ERβ (Homo sapiens, UniProt Q92731)
Experiment: MNAR-ER interaction analysis (flag-MNAR pull-down)
Format: binding
Details: full-length flag-MNAR, in vitro transcribed/translated full-length ERβ, ligand 1 μM

C[C@]12CC[C@@H]3c4ccc(O)cc4CC[C@H]3[C@@H]1CC[C@@H]2O [E2, 17β-estradiol]
ERβ interaction with MNAR: enhanced
